# AlphaSeq binding of Ab-91 heavy chain variants to a spike HR2 peptide

Source: Engelhart et al. 2022 (doi:10.1038/s41597-022-01779-4), MIT Lincoln Laboratory and A-Alpha Bio; data file from the FLAb repository.

Target peptide (SARS-CoV-2 spike, HR2 region): PDVDLGDISGINAS

Parent scFv Ab-91: VL joined to VH by the linker GGGGSGGGGSGGGGS. Changes lie in the heavy chain CDRs alone.
VL: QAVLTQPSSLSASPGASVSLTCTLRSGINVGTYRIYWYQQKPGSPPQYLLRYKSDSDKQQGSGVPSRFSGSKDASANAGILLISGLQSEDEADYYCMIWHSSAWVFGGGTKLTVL
VH: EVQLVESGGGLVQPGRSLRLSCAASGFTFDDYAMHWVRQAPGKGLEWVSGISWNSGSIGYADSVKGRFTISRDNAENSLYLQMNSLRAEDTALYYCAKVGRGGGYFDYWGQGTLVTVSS

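AAYL51 was designed without a model: most single CDR substitutions and a random sample of double and triple ones. In AlphaSeq, yeast of one mating type display the scFv and yeast of the other type display the target. After mating in shaken culture at 30 °C for 16 h, diploids were selected and their barcode pairs sequenced. Scores were corrected for input abundance and mapped to Kd with protein pairs of known affinity run in the same pool. Mating was done three times.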

Changes read parent residue, position, new residue, counted from the first residue of the VH shown.
Scale: log10 of Kd in nM, estimated from mating counts; low values are strong binders.
Averages over replicates are reported, and they cover detected replicates only.
"ND" means that the variant was in the library but no mating with the target was seen in that replicate; the authors take this as a sign of poor binding, and no number exists.
Empty control strains, which show no peptide, gave a signal in 21% of pairings with library AAYL51; the median was 4.54 and 95% of these signals were weaker than 3.26. No background was subtracted. Also given: how often the same scFv was detected with the empty control strains, with their mean in brackets.
Parent in this assay: reference entry 1.86, copy in this library 0.88.

changes	log10 Kd (nM) by replicate	log10 Kd (nM), mean	control signals
I58H/D62R/Y108N	ND / ND / ND	ND	0/9
I51Y/G104N	ND / ND / ND	ND	0/9
M34V/W53A/N54K	ND / ND / ND	ND	1/9 (3.89)
I51K/S52F	ND / ND / ND	ND	0/9
A33H/V64D/R101N	4.29 / ND / ND	4.29	2/9 (4.51)
M34L/W53A/G100V	3.50 / ND / ND	3.50	0/9
A61C/K65H/D107H	ND / ND / ND	ND	0/9
F29Q/V99G/G102R	ND / ND / ND	ND	0/9
N54H/Y60K/G104A	ND / ND / 2.32	2.32	0/9
I51G	3.89 / 4.28 / ND	4.09	3/9 (3.70)
W53I/I58D/D107E	ND / ND / ND	ND	0/9
G26E/T28A/Y108C	2.69 / 2.58 / 3.49	2.92	2/9 (3.48)
V64L/V99I	ND / ND / 5.44	5.44	4/9 (4.96)
D30T/I51L/F106Q	ND / ND / ND	ND	2/9 (4.89)
F27N/H35R/A61G	4.85 / 5.47 / 4.06	4.79	7/9 (5.07)
D30E/V64A	1.56 / 1.22 / 1.05	1.27	1/9 (3.69)
S55V/D107S	ND / ND / ND	ND	2/9 (3.45)
S57C/V64F/Y108E	3.00 / 2.47 / 1.75	2.41	0/9
D30W/S55A/K65P	ND / ND / ND	ND	0/9
Y32N/S52C/K65Y	4.79 / ND / ND	4.79	2/9 (3.51)
G26P/D107T	4.34 / 5.14 / 4.92	4.80	4/9 (5.21)
F27H/Y32R/I58K	ND / ND / ND	ND	1/9 (3.33)
W53V/I58W/Y108C	2.10 / 1.78 / 1.34	1.74	2/9 (4.18)
G26L/G56P/S57N	ND / ND / ND	ND	0/9
I51H/K65E/R101P	5.64 / 4.72 / ND	5.18	7/9 (4.64)
T28P/D30K/G59S	ND / 4.46 / ND	4.46	5/9 (4.94)
I58W/V64D/R101F	4.77 / 4.46 / ND	4.61	5/9 (4.66)
F27S/D30F/A33W	ND / ND / ND	ND	1/9 (3.27)
W53D/S55D/G56Y	5.36 / ND / ND	5.36	2/9 (3.32)
M34K/S63W	ND / 2.99 / ND	2.99	1/9 (3.43)
R101F	2.53 / 2.70 / 2.96	2.73	3/9 (4.12)

Picked from the list: the 4 lowest averages where every replicate gave a value.

changes	log10 Kd (nM) by replicate	log10 Kd (nM), mean	control signals
D30E/V64A	1.56 / 1.22 / 1.05	1.27	1/9 (3.69)
W53V/I58W/Y108C	2.10 / 1.78 / 1.34	1.74	2/9 (4.18)
S57C/V64F/Y108E	3.00 / 2.47 / 1.75	2.41	0/9
R101F	2.53 / 2.70 / 2.96	2.73	3/9 (4.12)